Results on one compound are retold here after ChEMBL document CHEMBL1129631, “Synthesis and evaluation of aryl-substituted N-(arylethyl)-N-methyl-2-(1-pyrrolidinyl)ethylamines and corresponding arylacetamides for sigma receptor affinity” (J Med Chem, 1996).

The assay has as its target Sigma non-opioid intracellular receptor 1 (Cavia porcellus) (UniProt Q60492). The assay can be described thus: Relative affinity for sigma-1 compared to sigma-2 type receptors.

Take `COc1ccccc1CC(=O)N(C)CCN1CCCC1`: the Ratio was 1.7.
